Results taken from PubChem BioAssay AID873 (PCMD, 2007).
This is a selection; strong and weak results do not stand in their true shares. Activity calls are given as the source filed them.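 Rule for the calls: active = inhibition of 40% or more; inactive = the rest.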

The chains behind the UniProt entries cited, without tags or fusion partners. Residues count along the entry.
UniProt Q9Y337, 67-293 limits assumed: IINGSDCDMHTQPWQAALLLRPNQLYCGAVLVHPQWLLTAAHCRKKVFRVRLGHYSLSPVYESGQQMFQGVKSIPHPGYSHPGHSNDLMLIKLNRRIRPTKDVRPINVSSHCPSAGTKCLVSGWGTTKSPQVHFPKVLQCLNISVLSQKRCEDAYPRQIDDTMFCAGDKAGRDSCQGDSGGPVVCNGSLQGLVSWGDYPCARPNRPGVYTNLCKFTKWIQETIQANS

target: Kallikrein-5 (Homo sapiens) (UniProt Q9Y337); assay: inhibition of kallikrein 5 (hK5) activity – biochemical, 1536-well, primary screen (AID 873); details: recombinant hK5, fluorogenic AMC substrate cleavage; at 5 µM; active compounds read high;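 note: 0% = enzyme controls without compound and 100% = no-enzyme blanks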

| Compound | inhibition |
| --- | --- |
| c1nnnn1CCn1cnnn1 | inactive: -3.81% |
